Measured values taken from ChEMBL document CHEMBL1649161, “Pharmacokinetics of EDP-420 after ascending single oral doses in healthy adult volunteers” (Antimicrob Agents Chemother, 2009).

Experiment: clinical
Conditions: human, in vivo, po, 500 mg

Molecule CC[C@H]1OC(=O)[C@H](C)[C@@H](O[C@H]2C[C@@](C)(OC)[C@@H](O)[C@H](C)O2)[C@H](C)[C@@H](O[C@@H]2O[C@H](C)C[C@H](N(C)C)[C@H]2O)[C@](C)(O)C[C@@H](C)C(=O)[C@H](C)[C@@H](O)[C@]1(C)O [ERYTHROMYCIN] has a half-life of 2 h.
